PMC5962959 (ChemMedChem, 2017)

Target: T1, full-length human TSSK2 (Homo sapiens, UniProt Q96PF2)
T1 sequence (Q96PF2 1-358): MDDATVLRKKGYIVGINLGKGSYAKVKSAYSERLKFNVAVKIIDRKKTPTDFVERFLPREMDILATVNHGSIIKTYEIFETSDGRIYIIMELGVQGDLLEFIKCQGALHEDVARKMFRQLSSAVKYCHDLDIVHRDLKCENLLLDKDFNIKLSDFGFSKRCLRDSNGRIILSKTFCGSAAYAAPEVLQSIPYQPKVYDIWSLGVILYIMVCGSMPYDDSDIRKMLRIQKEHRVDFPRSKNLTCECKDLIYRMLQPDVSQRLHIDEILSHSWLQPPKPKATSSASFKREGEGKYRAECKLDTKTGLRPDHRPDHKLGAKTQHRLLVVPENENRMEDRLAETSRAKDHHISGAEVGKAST
Test: Mobility shift assay: TSSK2 phosphorylation of 5-FAM-GS peptide
Format: biochemical
Details: HTS at 10 μM; cherry-picked compounds from DMSO stocks

## CN[C@@H]1C[C@H]2O[C@@](C)([C@@H]1OC)n1c3ccccc3c3c4c(c5c6ccccc6n2c5c31)C(=O)NC4 [staurosporine]
  TSSK2 inhibitor confirmed in concentration-response experiments after HTS: active
